Data reported in patent publication US5280119A, “Heterocyclic amine-boranes, and method of inhibiting DNA topoisomerase activity and/or combatting inflammation, hyperlipidemia, and/or neoplasia using amine-borane compounds” (dated 1994).

By UniProt entry, the sequences of proteins in these tests, tags left out. Where a name states a change or a piece, a line headed by the entry shows the natural chain unless it says otherwise.
UniProt Q91V92: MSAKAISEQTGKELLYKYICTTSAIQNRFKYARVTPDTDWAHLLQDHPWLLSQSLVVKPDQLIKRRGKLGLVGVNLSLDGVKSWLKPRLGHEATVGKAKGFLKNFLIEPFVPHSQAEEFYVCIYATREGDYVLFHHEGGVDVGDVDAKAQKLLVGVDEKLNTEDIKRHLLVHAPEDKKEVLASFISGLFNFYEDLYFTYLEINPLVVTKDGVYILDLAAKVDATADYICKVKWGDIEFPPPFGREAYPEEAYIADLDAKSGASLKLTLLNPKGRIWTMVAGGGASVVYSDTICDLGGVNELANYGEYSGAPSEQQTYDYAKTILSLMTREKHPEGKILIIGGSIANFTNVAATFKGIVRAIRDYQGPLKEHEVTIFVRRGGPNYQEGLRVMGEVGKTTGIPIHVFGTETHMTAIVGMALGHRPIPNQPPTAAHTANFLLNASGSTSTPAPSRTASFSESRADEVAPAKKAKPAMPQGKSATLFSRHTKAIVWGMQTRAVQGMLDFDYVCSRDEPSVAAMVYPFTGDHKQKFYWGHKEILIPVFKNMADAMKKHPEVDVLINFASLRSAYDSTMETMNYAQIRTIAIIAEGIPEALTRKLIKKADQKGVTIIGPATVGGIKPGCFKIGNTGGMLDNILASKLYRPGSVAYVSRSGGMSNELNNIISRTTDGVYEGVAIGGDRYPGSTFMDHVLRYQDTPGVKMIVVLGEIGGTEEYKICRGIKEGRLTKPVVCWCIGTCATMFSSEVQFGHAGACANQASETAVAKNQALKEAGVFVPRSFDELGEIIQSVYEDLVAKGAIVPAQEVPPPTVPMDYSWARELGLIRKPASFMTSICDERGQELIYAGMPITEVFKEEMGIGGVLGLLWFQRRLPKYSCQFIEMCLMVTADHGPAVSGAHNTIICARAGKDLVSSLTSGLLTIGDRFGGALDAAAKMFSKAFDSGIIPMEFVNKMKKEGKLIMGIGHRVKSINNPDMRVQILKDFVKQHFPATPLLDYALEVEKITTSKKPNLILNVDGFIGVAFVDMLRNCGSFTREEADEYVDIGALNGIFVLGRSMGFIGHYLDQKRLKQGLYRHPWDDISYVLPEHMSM
UniProt Q64505: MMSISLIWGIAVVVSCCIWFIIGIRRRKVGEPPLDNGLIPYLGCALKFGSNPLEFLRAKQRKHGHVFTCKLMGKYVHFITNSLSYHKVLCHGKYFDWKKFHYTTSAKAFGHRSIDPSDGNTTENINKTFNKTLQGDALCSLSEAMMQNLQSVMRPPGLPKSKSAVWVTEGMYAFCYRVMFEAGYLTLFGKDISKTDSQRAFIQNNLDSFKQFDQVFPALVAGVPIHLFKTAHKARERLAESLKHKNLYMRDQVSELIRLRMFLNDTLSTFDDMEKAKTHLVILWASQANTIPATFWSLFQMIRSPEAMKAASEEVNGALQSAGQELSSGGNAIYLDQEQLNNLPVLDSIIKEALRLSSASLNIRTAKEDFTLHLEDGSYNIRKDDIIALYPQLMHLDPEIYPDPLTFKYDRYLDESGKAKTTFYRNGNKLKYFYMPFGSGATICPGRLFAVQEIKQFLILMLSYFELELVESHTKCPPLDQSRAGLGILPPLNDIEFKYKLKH
UniProt O88908: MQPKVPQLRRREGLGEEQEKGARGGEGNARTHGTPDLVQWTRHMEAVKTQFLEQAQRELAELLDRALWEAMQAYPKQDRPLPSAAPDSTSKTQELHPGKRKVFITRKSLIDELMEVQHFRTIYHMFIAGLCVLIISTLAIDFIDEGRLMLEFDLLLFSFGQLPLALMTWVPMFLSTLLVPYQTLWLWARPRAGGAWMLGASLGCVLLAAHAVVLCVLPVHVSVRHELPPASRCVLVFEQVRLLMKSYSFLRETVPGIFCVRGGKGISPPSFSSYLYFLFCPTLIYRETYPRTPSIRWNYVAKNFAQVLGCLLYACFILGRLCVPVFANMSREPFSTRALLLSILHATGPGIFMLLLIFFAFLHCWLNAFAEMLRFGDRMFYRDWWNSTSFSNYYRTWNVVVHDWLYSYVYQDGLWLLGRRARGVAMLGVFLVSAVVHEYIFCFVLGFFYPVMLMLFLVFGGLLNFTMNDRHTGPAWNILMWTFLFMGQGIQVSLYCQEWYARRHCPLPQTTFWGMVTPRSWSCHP
UniProt Q9QXG4, whole entry, looked up: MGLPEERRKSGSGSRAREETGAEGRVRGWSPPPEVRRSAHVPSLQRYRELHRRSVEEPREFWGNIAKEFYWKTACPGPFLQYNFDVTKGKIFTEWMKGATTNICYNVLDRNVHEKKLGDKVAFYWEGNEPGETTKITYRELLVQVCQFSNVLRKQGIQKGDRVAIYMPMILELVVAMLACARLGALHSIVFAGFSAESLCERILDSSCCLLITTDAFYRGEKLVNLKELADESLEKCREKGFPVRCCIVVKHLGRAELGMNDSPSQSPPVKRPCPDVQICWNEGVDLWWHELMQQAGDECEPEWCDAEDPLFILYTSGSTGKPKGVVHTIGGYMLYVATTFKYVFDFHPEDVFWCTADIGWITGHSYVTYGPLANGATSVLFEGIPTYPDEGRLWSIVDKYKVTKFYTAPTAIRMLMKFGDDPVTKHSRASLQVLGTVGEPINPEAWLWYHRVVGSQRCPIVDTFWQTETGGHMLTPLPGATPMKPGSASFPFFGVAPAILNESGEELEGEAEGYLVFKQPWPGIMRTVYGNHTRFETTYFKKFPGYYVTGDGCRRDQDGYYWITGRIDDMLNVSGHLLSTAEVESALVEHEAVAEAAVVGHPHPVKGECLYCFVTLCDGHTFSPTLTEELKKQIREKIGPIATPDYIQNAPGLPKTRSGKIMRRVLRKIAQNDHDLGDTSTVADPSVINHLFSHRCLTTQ

Key:
osteosarcoma TE418 = assay: Cytotoxicity, osteosarcoma TE418; conditions: for ED50 Cytotoxicity, Human Osteo-Sarcoma: te418 cells
[1] = tested on: P388 lymphocytic leukemia; assay: Cytotoxicity, P388 lymphocytic leukemia; conditions: p388 cells
[2] = tested on: KB epidermoid nasopharynx; assay: Cytotoxicity, KB epidermoid nasopharynx; conditions: for ED50 Cytotoxicity, Human KB: kb cells
[3] = tested on: murine L1210 lymphoid leukemia; assay: Cytotoxicity, L1210 lymphoid leukemia; conditions: trypan blue exclusion
L1210 leukemia = assay: in vivo L1210 leukemia screen; conditions: 20 mg/kg/day
[4] = tested on: lung bronchogenic MB-9812; assay: Cytotoxicity, lung bronchogenic MB-9812; conditions: concentration which inhibits 50% of cell growth
glioma EH 118 MG = assay: Cytotoxicity, glioma EH 118 MG; conditions: eh 118 mg cells
[5] = tested on: HeLa-S^3 suspended cervical carcinoma; assay: Cytotoxicity, HeLa-S3; conditions: hela-s3 cells
[6] = Anti-inflammatory activity, carrageenan paw; conditions: CF1 Mice, 20 mg/kg × 2 (table head; b1373: 8 mg/kg i.p. 3 hours and 30 minutes before carrageenan)
[7] = tested on: colorectal adenocarcinoma SW480; assay: Cytotoxicity, colorectal adenocarcinoma SW480; conditions: sw480 cells
[8] = Hypolipidemic screen in normal mice; conditions: CF1 male mice, IP; for Serum Cholesterol Day 9 / Serum Cholesterol Day 16 / Serum Triglycerides Day 16: 8 Mg/kg/day, N = 6
[9] = tested on: Ehrlich ascites carcinoma; assay: in vivo Ehrlich ascites carcinoma screen; conditions: 20 mg/kg/day I.P., CF1 male mice
[10] = tested on: human Tmolt3 acute lymphoblastic T cell leukemia; assay: Cytotoxicity, Tmolt3; conditions: trypan blue exclusion
[11] = Liver, small intestine, aorta, bile and fecal lipid extraction; conditions: rats, 8 mg/kg/day orally 14 days
HMG CoA Reductase = assay: HMG CoA reductase (cholesterol synthesis), liver in vitro
[12] = Hypolipidemic screen in normal rats (serum lipids, body weight, food)
[13] = target: ATP Dependent Citrate Lyase (Mus musculus, UniProt Q91V92); assay: ATP dependent citrate lyase, liver homogenate in vitro; conditions: 30 min
[14] = Serum lipoprotein fractions; conditions: rats, 8 mg/kg/day orally 14 days, N = 6
[15] = target: Cholesterol 7α Hydroxylase (Mus musculus, UniProt Q64505); assay: Cholesterol-7α-hydroxylase, liver in vitro
[16] = tested on: Neutral Cholesterol Ester Hydrolase; assay: Neutral cholesterol ester hydrolase, liver in vitro
[17] = target: Acyl CoA Cholesterol Acyl Transferase (Mus musculus, UniProt O88908); assay: Acyl CoA cholesterol acyl transferase, liver in vitro
Acetyl CoA Synthetase = Acetyl CoA Synthetase (Mus musculus, UniProt Q9QXG4); assay: Acetyl CoA synthetase, liver homogenate in vitro; conditions: 30 min
Acetyl CoA Carboxylase = Acetyl CoA Carboxylase (Mus musculus, UniProt Q5SWU9); assay: Acetyl CoA carboxylase, liver in vitro
[18] = tested on: SN Glycerol 3 Phosphate Acyl Transferase; assay: sn-Glycerol-3-phosphate acyl transferase, liver in vitro
Lewis lung carcinoma = assay: In vivo Lewis lung carcinoma activity; conditions: 8 mg/kg/day I.P.
[19] = tested on: Phosphatidylate Phosphohydrolase; assay: Phosphatidylate phosphohydrolase, liver in vitro; conditions: 30 min
[20] = Sprague Dawley male rats, 8 mg/kd/day orally (clofibrate 150 mg/kg/day)

## Cn1cc[n+]([BH2-]C#N)c1
Osteosarcoma TE418
  ED50 Cytotoxicity, Human Osteo-Sarcoma: 6.86 µg/mL (≈ 56.7 µM)
[1]
  ED50 Cytotoxicity, P388 Lymphocytic Leukemia: 5.13 µg/mL (≈ 42.4 µM)
[2]
  ED50 Cytotoxicity, Human KB: 7.18 µg/mL (≈ 59.4 µM)
[3]
  ED50 Cytotoxicity, L1210 Lymphoid Leukemia: 3.12 µg/mL (≈ 25.8 µM)
L1210 leukemia
  T/C%, L1210 leukemia screen in vivo: inactive
[4]
  ED50 Cytotoxicity, Human Lung Bronchogenic: 2.66 µg/mL (≈ 22 µM)
Glioma EH 118 MG
  ED50 Cytotoxicity, Human Glioma: 3.00 µg/mL (≈ 24.8 µM)
[5]
  ED50 Cytotoxicity, Human HeLa-S^3: 2.40 µg/mL (≈ 19.8 µM)
[6]
  % of Control, anti-inflammatory (paw weight increase): 71 % of Control
[7]
  ED50 Cytotoxicity, Human Colon SW480: 6.77 µg/mL (≈ 56 µM)
[8]
  Serum Cholesterol Day 9: 74 ± 7% of Control
  Serum Cholesterol Day 16: 71 ± 8% of Control
  Serum Triglycerides Day 16: 74 ± 6% of Control
[9]
  inhibition of growth, in vivo Ehrlich ascites carcinoma: 83%
[10]
  ED50 Cytotoxicity, Human lymphocyte Tmolt3: 2.39 µg/mL (≈ 19.8 µM)

## CCNC(=O)[BH2-][n+]1ccn(C)c1
Osteosarcoma TE418
  ED50 Cytotoxicity, Human Osteo-Sarcoma: 2.53 µg/mL (≈ 15.1 µM)
Osteosarcoma TE418; text summary of Table 4
  inhibition of growth of human osteosarcoma (in words): significantly inhibited
[11]
  Aorta Cholesterol: 73 ± 5% of Control
  Aorta Neutral Lipids: 256 ± 6% of Control
  Aorta Phosphate Lipids: 81 ± 4% of Control
  Aorta Protein: 93 ± 5% of Control
  Aorta Triglyceride: 83 ± 5% of Control
  Aorta mg Lipid Extracted: 117 ± 7% of Control
  Bile Cholesterol: 156 ± 10% of Control
  Bile Neutral Lipids: 104 ± 7% of Control
  Bile Phosphate Lipids: 95 ± 8% of Control
  Bile Protein: 111 ± 5% of Control
  Bile Triglyceride: 121 ± 5% of Control
  Liver Cholesterol: 85 ± 6% of Control
  Liver Neutral Lipids: 115 ± 6% of Control
  Liver Phosphate Lipids: 133 ± 6% of Control
  Liver Protein: 109 ± 7% of Control
  Liver Triglyceride: 78 ± 5% of Control
  Liver mg Lipid Extracted: 74 ± 6% of Control
  Small Intestine Cholesterol: 80 ± 6% of Control
  Small Intestine Neutral Lipids: 104 ± 4% of Control
  Small Intestine Phosphate Lipids: 41 ± 4% of Control
  Small Intestine Protein: 102 ± 6% of Control
  Small Intestine Triglyceride: 95 ± 5% of Control
  Small Intestine mg Lipid Extracted: 88 ± 8% of Control
[11]; 24 h collection
  Feces Cholesterol: 176 ± 8% of Control
  Feces Neutral Lipids: 127 ± 9% of Control
  Feces Phosphate Lipids: 207 ± 3% of Control
  Feces Protein: 201 ± 8% of Control
  Feces Triglyceride: 63 ± 7% of Control
  Feces mg Lipid Extracted: 130 ± 8% of Control
HMG CoA Reductase; 25 μM
  HMG CoA Reductase: 66 ± 5% of Control
HMG CoA Reductase; 50 μM
  HMG CoA Reductase: 61 ± 4% of Control
HMG CoA Reductase; 100 μM
  HMG CoA Reductase: 22 ± 3% of Control
[1]
  ED50 Cytotoxicity, P388 Lymphocytic Leukemia: 6.00 µg/mL (≈ 35.9 µM)
[2]
  ED50 Cytotoxicity, Human KB: 2.52 µg/mL (≈ 15.1 µM)
[2]; text summary of Table 4
  activity in the KB nasopharynx screen (in words): good activity
[3]
  ED50 Cytotoxicity, L1210 Lymphoid Leukemia: 1.80 µg/mL (≈ 10.8 µM)
[12]; [20]
  Serum Cholesterol Day 7: 74 ± 6% of Control
  Serum Cholesterol Day 14: 58 ± 5% of Control
  Serum Triglycerides Day 7: 91 ± 6% of Control
  Serum Triglycerides Day 14: 78 ± 6% of Control
[12]; Sprague Dawley male rats, 14 days at 8 mg/kd/day orally, 1% CMC control 131
  Percent Body Wt: 132%
[12]; rats, 8 mg/kg/day orally
  Daily food consumption reduced: 5%
[12]; rats, 8 mg/kg/day orally, after 14 days
  rat serum cholesterol levels lowered: greater than 40%
[12]; rats, 8 mg/kg/day orally, day 14
  rat serum triglyceride levels reduced: 22%
[12]; rats, 8 mg/kg/day orally, over 14 days
  reduction of the total body weight increase: no effect
[13]; 25 μM
  ATP Dependent Citrate Lyase: 30 ± 2% of Control
[13]; 50 μM
  ATP Dependent Citrate Lyase: 24 ± 3% of Control
[13]; 100 μM
  ATP Dependent Citrate Lyase: 22 ± 3% of Control
[4]
  ED50 Cytotoxicity, Human Lung Bronchogenic: 3.36 µg/mL (≈ 20.1 µM)
[14]
  Chylomicron Cholesterol: 120 ± 7% of Control
  Chylomicron Neutral Lipids: 66 ± 6% of Control
  Chylomicron Phospholipids: 11 ± 8% of Control
  Chylomicron Protein: 100 ± 6% of Control
  Chylomicron Triglyceride: 95 ± 7% of Control
  HDL Cholesterol: 326 ± 12% of Control
  HDL Neutral Lipids: 101 ± 6% of Control
  HDL Phospholipids: 65 ± 4% of Control
  HDL Protein: 92 ± 8% of Control
  HDL Triglyceride: 165 ± 6% of Control
  LDL Cholesterol: 36 ± 2% of Control
  LDL Neutral Lipids: 53 ± 5% of Control
  LDL Phospholipids: 73 ± 4% of Control
  LDL Protein: 45 ± 3% of Control
  LDL Triglyceride: 50 ± 4% of Control
  VLDL Cholesterol: 41 ± 3% of Control
  VLDL Neutral Lipids: 89 ± 7% of Control
  VLDL Phospholipids: 88 ± 5% of Control
  VLDL Protein: 69 ± 6% of Control
  VLDL Triglyceride: 90 ± 6% of Control
[15]; 25 μM
  Cholesterol 7α Hydroxylase: 112 ± 7% of Control
[15]; 50 μM
  Cholesterol 7α Hydroxylase: 123 ± 6% of Control
[15]; 100 μM
  Cholesterol 7α Hydroxylase: 128 ± 5% of Control
[5]
  ED50 Cytotoxicity, Human HeLa-S^3: 2.24 µg/mL (≈ 13.4 µM)
[16]; 25 μM
  Neutral Cholesterol Ester Hydrolase: 141 ± 8% of Control
[16]; 50 μM
  Neutral Cholesterol Ester Hydrolase: 184 ± 8% of Control
[16]; 100 μM
  Neutral Cholesterol Ester Hydrolase: 424 ± 9% of Control
[17]; 25 μM
  Acyl CoA Cholesterol Acyl Transferase: 126 ± 6% of Control
[17]; 50 μM
  Acyl CoA Cholesterol Acyl Transferase: 101 ± 6% of Control
[17]; 100 μM
  Acyl CoA Cholesterol Acyl Transferase: 93 ± 7% of Control
[6]
  % of Control, anti-inflammatory (paw weight increase): 70 % of Control
Acetyl CoA Synthetase; 25 μM
  Acetyl CoA Synthetase: 101 ± 5% of Control
Acetyl CoA Synthetase; 50 μM
  Acetyl CoA Synthetase: 85 ± 6% of Control
Acetyl CoA Synthetase; 100 μM
  Acetyl CoA Synthetase: 79 ± 52% of Control
[7]
  ED50 Cytotoxicity, Human Colon SW480: 7.76 µg/mL (≈ 46.5 µM)
Acetyl CoA Carboxylase; 25 μM
  Acetyl CoA Carboxylase: 123 ± 9% of Control
Acetyl CoA Carboxylase; 50 μM
  Acetyl CoA Carboxylase: 121 ± 7% of Control
Acetyl CoA Carboxylase; 100 μM
  Acetyl CoA Carboxylase: 73 ± 5% of Control
[18]; 25 μM
  SN Glycerol 3 Phosphate Acyl Transferase: 100 ± 7% of Control
[18]; 50 μM
  SN Glycerol 3 Phosphate Acyl Transferase: 99% of Control
[18]; 100 μM
  SN Glycerol 3 Phosphate Acyl Transferase: 97 ± 6% of Control
[8]
  Serum Cholesterol Day 9: 74 ± 7% of Control
  Serum Cholesterol Day 16: 63 ± 4% of Control
  Serum Triglycerides Day 16: 59 ± 6% of Control
[8]; doses of Table 6
  serum triglyceride levels lowered: 41%
Lewis lung carcinoma
  T/C%, in vivo Lewis lung carcinoma: 120%
[19]; 25 μM
  Phosphatidylate Phosphohydrolase: 60 ± 5% of Control
[19]; 50 μM
  Phosphatidylate Phosphohydrolase: 53 ± 6% of Control
[19]; 100 μM
  Phosphatidylate Phosphohydrolase: 47% of Control
[10]
  ED50 Cytotoxicity, Human lymphocyte Tmolt3: 1.79 µg/mL (≈ 10.7 µM)

Values after ≈ are worked out from the molar mass of the structure shown.
